Reference: US9999619B2, “Piperidin-4-yl azetidine derivatives as JAK1 inhibitors” (Incyte Corporation, priority 2010, dated 2018)

Assays:
[1] = biological target: human JAK1 (a.a. 837-1142); assay: In vitro JAK kinase assay (HTRF, phosphorylation of a biotinylated peptide), JAK1; format: biochemical; conditions: ratio of JAK2 IC50 to JAK1 IC50, measured at 1 mM ATP
Procedure: (§1) Compounds herein were tested for inhibitory activity of JAK targets according to the following in vitro assay described in Park et al., Analytical Biochemistry 1999, 269, 94-104. The catalytic domains of human JAK1 (a.a. 837-1142), Jak2 (a.a. 828-1132) and Jak3 (a.a. 781-1124) with an N-terminal His tag were expressed using baculovirus in insect cells and purified. The catalytic activity of JAK1, JAK2 or JAK3 was assayed by measuring the phosphorylation of a biotinylated peptide. The phosphorylated peptide was detected by homogenous time resolved fluorescence (HTRF). […] Reactions were carried out at room temperature for 1 hr and then stopped with 20 μL 45 mM EDTA, 300 nM SA-APC, 6 nM Eu-Py20 in assay buffer (Perkin Elmer, Boston, Mass.). Binding to the Europium labeled antibody took place for 40 minutes and HTRF signal was measured on a Fusion plate reader (Perkin Elmer, Boston, Mass.).

[2] = biological target: human JAK1 (a.a. 837-1142) (Homo sapiens, UniProt P23458); assay: as above; format: biochemical; conditions: measured at 1 mM ATP
Procedure: as §1

| Structure (SMILES) | IC50 Ratio JAK2/JAK1 [1] | IC50 [2] [nM] |
| --- | --- | --- |
| N#CCC1(n2cc(-c3ncnc4[nH]ccc34)cn2)CN(C2CCN(C(=O)c3cccc(Cl)c3)CC2)C1 [Example 19, {1-[1-(3-chlorobenzoyl)piperidin-4-yl]-3-[4-(7H-pyrrolo[2,3-d]pyrimidin-4-yl)-1H-pyrazol-1-yl]azetidin-3-yl}acetonitrile] | 3.8 |  |
| N#CCC1(n2cc(-c3ncnc4[nH]ccc34)cn2)CN(C2CCN(C(=O)c3ccc(C#N)c(F)c3)CC2)C1 [Example 66, 4-[(4-{3-(cyanomethyl)-3-[4-(7H-pyrrolo[2,3-d]pyrimidin-4-yl)-1H-pyrazol-1-yl]azetidin-1-yl}piperidin-1-yl)carbonyl]-2-fluorobenzonitrile] | 6.2 | 5 to 20 |
| COc1cc(C(F)(F)F)sc1C(=O)N1CCC(N2CC(CC#N)(n3cc(-c4ncnc5[nH]ccc45)cn3)C2)CC1 [Example 70, {1-{1-[3-methoxy-5-(trifluoromethyl)-2-thienylcarbonyl]piperidin-4-yl}-3-[4-(7H-pyrrolo[2,3-d]pyrimidin-4-yl)-1H-pyrazol-1-yl]azetidin-3-yl}acetonitrile] | 3.8 | ≤ 5 |
| Cc1csc(C(=O)N2CCC(N3CC(CC#N)(n4cc(-c5ncnc6[nH]ccc56)cn4)C3)CC2)c1 [Example 79, {1-{1-[(4-meth1-2-thienyl)carbonyl]piperidin-4-yl}-3-[4-(7H-pyrrolo[2,3-d]pyrimidin-4-yl)-1H-pyrazol-1-yl]azetidin-3-yl}acetonitrile] | 3.9 |  |
| N#CCC1(n2cc(-c3ncnc4[nH]ccc34)cn2)CN(C2CCN(C(=O)c3ccnc(C(F)(F)F)n3)CC2)C1 [Example 85, [3-[4-(7H-pyrrolo[2,3-d]pyrimidin-4-yl)-1H-pyrazol-1-yl]-1-(1-{[2-(trifluoromethyl)pyrimidin-4-yl]carbonyl}piperidin-4-yl)azetidin-3-yl]acetonitrile] | 15.9 |  |
| Cc1ccc(C#N)c(N2CCC(C(=O)N3CCC(N4CC(CC#N)(n5cc(-c6ncnc7[nH]ccc67)cn5)C4)CC3)CC2)n1 [Example 108, 2-{4-[(4-{3-(cyanomethyl)-3-[4-(7H-pyrrolo[2,3-d]pyrimidin-4-yl)-1H-pyrazol-1-yl]azetidin-1-yl}piperidin-1-yl)carbonyl]piperidin-1-yl}-6-methylnicotinonitrile] | 1.4 | 5 to 20 |
| N#CCC1(n2cc(-c3ncnc4[nH]ccc34)cn2)CN(C2CCN(C(=O)c3ccc(-c4cccnc4)cc3F)CC2)C1 [Example 120, {1-[1-(2-fluoro-4-pyridin-3-ylbenzoyl)piperidin-4-yl]-3-[4-(7H-pyrrolo[2,3-d]pyrimidin-4-yl)-1H-pyrazol-1-yl]azetidin-3-yl}acetonitrile] | 2.1 |  |
| N#CCC1(n2cc(-c3ncnc4[nH]ccc34)cn2)CN(C2CCN(C(=O)c3ccc(-c4nccs4)c(F)c3)CC2)C1 [Example 122, {1-{1-[3-fluoro-4-(1,3-thiazol-2-yl)benzoyl]piperidin-4-yl}-3-[4-(7H-pyrrolo[2,3-d]pyrimidin-4-yl)-1H-pyrazol-1-yl]azetidin-3-yl}acetonitrile] | 2.5 | 5 to 20 |
| N#CCC1(n2cc(-c3ncnc4[nH]ccc34)cn2)CN(C2CC3CCC(C2)N3C(=O)c2ccnc(C(F)(F)F)c2)C1 (stereo not drawn) [Example 144, (3-[4-(7H-pyrrolo[2,3-d]pyrimidin-4-yl)-1H-pyrazol-1-yl]-1-{8-[2-(trifluoromethyl)isonicotinoyl]-8-azabicyclo[3.2.1]oct-3-yl}azetidin-3-yl)acetonitrile] | 3.9 |  |
| N#CCC1(n2cc(-c3ncnc4[nH]ccc34)cn2)CN(C2CC3CCC(C2)N3C(=O)C2CCCC2)C1 (stereo not drawn) [Example 145, {1-[8-(cyclopentylcarbonyl)-8-azabicyclo[3.2.1]oct-3-yl]-3-[4-(7H-pyrrolo[2,3-d]pyrimidin-4-yl)-1H-pyrazol-1-yl]azetidin-3-yl}acetonitrile] | 3.6 |  |
| N#CCC1(n2cc(-c3ncnc4[nH]ccc34)cn2)CN(C2CC3CCC(C2)N3C(=O)C2CCCCC2)C1 (stereo not drawn) [Example 147, {1-[8-(cyclohexylcarbonyl)-8-azabicyclo[3.2.1]oct-3-yl]-3-[4-(7H-pyrrolo[2,3-d]pyrimidin-4-yl)-1H-pyrazol-1-yl]azetidin-3-yl}acetonitrile] | 6.1 |  |
| N#CCC1(n2cc(-c3ncnc4[nH]ccc34)cn2)CN(C2CC3CCC(C2)N3C(=O)C2CCC(F)(F)CC2)C1 (stereo not drawn) [Example 148, {1-{8-[(4,4-difluorocyclohexyl)carbonyl]-8-azabicyclo[3.2.1]oct-3-yl}-3-[4-(7H-pyrrolo[2,3-d]pyrimidin-4-yl)-1H-pyrazol-1-yl]azetidin-3-yl}acetonitrile] | 5.7 | ≤ 5 |
| N#CCC1(n2cc(-c3ncnc4[nH]ccc34)cn2)CN(C2CCN(C(=O)Nc3ccc(F)cc3C(F)(F)F)CC2)C1 [Example 154, 4-{3-(Cyanomethyl)-3-[4-(7H-pyrrolo[2,3-d]pyrimidin-4-yl)-1H-pyrazol-1-yl]azetidin-1-yl}-N-[4-fluoro-2-(trifluoromethyl)phenyl]piperidine-1-carboxamide] | 22.0 |  |
